## Yeast mating assay B: variants of the scFv Ab-14

From the AlphaSeq antibody data of Li et al. 2023 (doi:10.1038/s41467-023-39022-2), copy in the FLAb collection.

All variants were tested on one target, the spike HR2 peptide PDVDLGDISGINAS (SARS-CoV-2).

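The parent was found by panning a naive human phage display library on the peptide. These sequences belong to a second round, designed from the earlier measurements on random variants of the parent. Their group label is 14L_En_HC (En: ensemble of fine-tuned language models; HC: hill climbing; a sequence that several methods proposed may carry one label only). Affinity was read by AlphaSeq, a pooled yeast mating assay with surface-displayed partners. After mating in shaken culture at 30 °C for 16 h, diploids were selected and their barcode pairs sequenced. Each replicate has its own calibration line, from reference interactions of the BCL2 family. Mating was done six times.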

Ab-14 is the parent antibody, in scFv form: VH, then a (GGGGS)3 linker, then VL. The heavy chain is unchanged in all variants.
VH: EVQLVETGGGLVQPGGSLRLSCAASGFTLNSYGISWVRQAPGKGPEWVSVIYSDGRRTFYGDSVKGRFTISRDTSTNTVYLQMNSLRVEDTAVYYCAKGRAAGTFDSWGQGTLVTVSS
VL: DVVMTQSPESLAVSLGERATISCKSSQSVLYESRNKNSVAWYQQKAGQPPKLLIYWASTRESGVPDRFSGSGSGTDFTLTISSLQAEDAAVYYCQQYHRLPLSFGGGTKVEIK

Variants are written as CDR1, CDR2 and CDR3 of the light chain (limits as in the source). Parent: KSSQSVLYESRNKNSVA, WASTRES, QQYHRLPLS.
Numbers give log10(Kd / nM), so 0 is 1 nM and 3 is 1 µM. Smaller is tighter.
A mean of the replicates is given; it leaves out those without a signal.
An entry "ND" has no value in the source: the pair was not observed among the diploids in that replicate. This suggests poor binding but is not conclusive.
Values of this round are not directly comparable with the first-round values of the same sequences.
The parent sequence was in this pool as ten entries: three were never detected, three once, and four in most replicates, with averages from 0.34 to 2.37.
As a blank, each scFv also met three strains without target: over all light chain designs, 4% of these pairings were detected, typically at 2.64 and seldom below 1.59. The control count says in how many pairings with the empty strains this scFv gave a signal, with their mean in brackets.
In the paper, a design with two or fewer of six values counts as a poor binder.

CDR-L1 | CDR-L2 | CDR-L3 | log10 Kd, replicates | mean, log10 nM | signal with controls
TIGQMFNGESRIRNSVA | QASTRES | QSYDRLPLS | 1.03 1.37 0.78 0.94 1.36 1.34 | 1.14 | 2/18 (2.67)
TISYSAMMTGLNRNSVA | QAEERLE | QQYHRLPLS | 0.52 -0.29 0.39 0.38 0.01 0.09 | 0.18 | 0/18
TISQSFLMENQFKNSVA | QASTREA | QCYDRLPLS | 0.82 0.73 0.59 0.52 0.66 0.38 | 0.62 | 0/18
MMSMGYLQGMRAKNNVA | QEETREK | QQYHRLPLI | 1.48 1.24 0.90 0.85 1.57 1.78 | 1.30 | 1/18 (1.77)
KLSVSWLFESIEHNSVA | ERSTRES | QDYNRLPLS | ND 2.02 1.90 0.98 1.82 2.55 | 1.85 | 1/18 (1.82)
TLGTSTLEESRNKNSVA | EMSLRES | QSYNRLPLS | 1.30 0.51 1.37 1.45 0.48 0.87 | 1.00 | 2/18 (2.16)
TISQSTYWESFNKNNVA | QTSTRCE | QDYDRLPLS | ND 2.90 2.71 ND ND 2.34 | 2.65 | 1/18 (3.53)
KLSQYVGGESRNKSSLA | DNNTRED | QQYERLPLS | 2.28 1.71 1.55 1.73 1.63 2.05 | 1.82 | 5/18 (2.99)
MFSQGVMVGWLTRNSVA | NSETREN | QQYDRLPLS | 1.24 1.42 1.12 0.67 1.29 1.37 | 1.18 | 0/18
MISDLTMEGSRNKNSVA | DLSTRGS | QQYHRLPLS | -0.15 -0.21 -0.01 -0.50 -0.35 -0.03 | -0.21 | 0/18
TISQSTYWEQFNKNNVA | QTSTREE | QDYDRLPLS | 0.37 0.89 0.75 0.51 0.96 1.06 | 0.76 | 0/18
KLSMMVDYMQATHSSVA | QTSTREE | QQYHRLPLS | 0.68 0.34 0.49 0.55 0.35 0.54 | 0.49 | 0/18
TLGDVTRMESNKKDSIA | DMSNRAD | QQYHRLPLS | -0.48 -0.10 -0.26 -0.63 -0.89 -0.32 | -0.45 | 0/18
KISMQYRYESQEKNSIA | EMSTREE | QSYHRLPLS | 1.56 1.47 1.99 0.96 1.56 1.61 | 1.53 | 0/18
LISGVWTYGSRNYNSVA | QTSTRES | QQYDRLPLS | 1.26 1.48 0.88 0.84 0.80 0.89 | 1.02 | 0/18
TISQSTYIESFNKNNVA | QTSTREE | QDYDRLPLS | 1.77 1.50 1.01 1.50 2.05 2.60 | 1.74 | 1/18 (1.51)
SISMSMAFLSRNKNSVA | ENSTRES | QQYDRLPLV | 1.37 1.22 1.19 1.04 1.03 1.87 | 1.29 | 1/18 (2.75)
TLGDVTRMESNKKNSIA | DMSNRED | QQYHRLPLS | -0.01 0.06 -0.13 -0.22 -0.25 -0.06 | -0.10 | 0/18
TLTQVQGMESHNKDNVA | DLSTRGN | QQYNRLPLS | -0.52 -0.58 -0.58 -0.77 -0.59 -0.31 | -0.56 | 0/18
KISMTYRYEQQASNSIA | EMTTRAE | QSYHRLPLS | 0.75 0.55 0.53 0.37 0.46 0.60 | 0.54 | 1/18 (2.29)
KLGQMTGIESHNKNSLA | DANRREN | QQYHRLPLS | 0.41 0.19 0.32 0.14 0.02 0.34 | 0.24 | 1/18 (1.75)
KLLQTVMNGRTNRNNVA | HMTMRED | QQYFRLPLS | 1.70 2.16 1.52 2.45 2.10 2.48 | 2.07 | 0/18
IFSQGVMVGWLTRNSVA | NSETREK | QQYDRLPLS | 0.52 0.46 1.28 0.63 1.19 0.71 | 0.80 | 0/18
KLGAATRFESSNKASIA | NNSTREE | QQYHRLPLS | 0.48 0.75 0.41 0.63 0.52 0.65 | 0.57 | 2/18 (3.27)
KISQLVNFLGKNKYSVA | QMSTRED | QQYDRLPLS | 0.78 0.84 0.59 0.87 0.75 1.14 | 0.83 | 0/18
HVSQMVMYGSCNANNVA | QVSTREE | QQYHRLPLS | 1.16 0.97 0.91 0.89 0.80 0.72 | 0.91 | 1/18 (3.03)
MISDLTYLGLRNVNSVA | DLSMRGN | QQYDRLPLS | 1.15 0.88 1.08 0.93 0.84 1.18 | 1.01 | 1/18 (3.44)
KLGQSVAMTSRNKNNVA | DLNERGR | QQYHRLPLS | 0.61 0.36 0.60 0.83 0.83 0.74 | 0.66 | 0/18
ILSQSVLMGSHLKNSVA | QASTRFE | QQYHRLPLM | 0.26 0.36 0.70 0.71 0.65 0.50 | 0.53 | 0/18
KLSQVTHSESRNKNSIA | EMVTREV | QQYDRLPLT | 0.69 0.67 0.68 0.31 0.43 1.17 | 0.66 | 1/18 (3.74)
TINQSAQMESHNKNSVA | DLNVRGS | QQYDRLPLS | 0.63 0.75 0.13 0.22 0.08 0.43 | 0.37 | 0/18
TLGASTLEESRNKNSVA | EMSLREN | QSYNRLPLS | 0.79 0.57 0.93 1.21 0.60 0.65 | 0.79 | 0/18
IISQVDAYMSRNKNSIA | DQSTRGS | QQYDRLPLS | 1.15 0.76 1.11 1.14 0.90 0.64 | 0.95 | 0/18
SITQLVGWGQRNKNSVA | QMETREN | QQYDRLPLS | 1.17 0.69 1.27 0.53 0.67 0.94 | 0.88 | 0/18
TLGASTLEESRNKNSVA | EMSLREA | QSYNRLPLS | 0.51 0.41 0.30 0.23 0.52 0.01 | 0.33 | 1/18 (3.81)
HLSDTVMQGSYFRNSVA | QESTRAD | QQYHRLPLS | 0.75 0.32 0.02 0.28 0.28 0.49 | 0.36 | 0/18
SLMQVGGYESNNHNSIA | DLRTRER | QQYHRLPLS | 0.63 0.67 0.93 0.41 0.58 0.76 | 0.66 | 0/18
TVSQVHEMLSTNKNSVA | DMNTRES | QQYDRLPLS | 0.59 0.52 0.18 0.31 0.25 0.25 | 0.35 | 0/18
MMSQLTYMGSRARNAVA | QAEMRVN | QQYHHLPLF | ND 1.22 0.60 1.30 0.76 0.82 | 0.94 | 1/18 (1.12)